Experimental data taken from patent US20240091319A1, “DUAL-ADMINISTRATION METHODS FOR TREATING RESPIRATORY DISTRESS” (THE TRUSTEES OF THE STEVENS INSTITUTE OF TECHNOLOGY, priority 2021, published 2024).

Tests used:
[1] = test system: adult rat lung; test: Facilitation of dilute SURVANTA by negatively charged solutes in the adult rat lung
Experimental: Method 1. Surface tension determination in the isolated adult rat lung. In an isolated (excised) adult rat lung, the alveolar liquid is labeled with a fluorescent dye verified not to alter surface tension. T is determined as follows at a curved region of the alveolar air-liquid interface (e.g., the meniscus in a flooded alveolus or the corner of an aerated alveolus). Alveolar air pressure is determined with a transducer at the trachea of the constantly-inflated lung. Alveolar liquid phase pressure is determined by servo-nulling pressure measurement. The three-dimensional interfacial radius of curvature is determined by confocal microscopy. The surface tension is calculated according to the Laplace relation.
Method 2. Ventilation ‘injury score’ in the isolated adult rat lung. […] Alveolar liquid fluorescence at all time points is normalized by capillary fluorescence.
At baseline, alveolar liquid fluorescence (in flooded alveoli of experimental regions or in the liquid lining layer of control, aerated regions) is low and constant in all regions. Following ventilation, alveolar liquid fluorescence remains unchanged in aerated regions but continually increases with time in heterogeneously flooded regions. […] The increase above baseline in normalized alveolar liquid fluorescence at the last time point of the experiment is used as an injury score. […]

[2] = Surface tension in a liquid drop in vitro (Method 4); assay type: physicochemical
Experimental: Surface tension of normal saline drops (3 μl) containing 31 μM fluorescein and additional solutes as specified. The SP-C solution additionally contains 1.6% chloroform and 0.8% methanol.
Method 4. Surface tension in a liquid drop. […] The liquid pressure in the drop is determined by servo-nulling pressure measurement; the interfacial radius of curvature is determined by confocal microscopy; and the air pressure is atmospheric. Surface tension is calculated according to the Laplace relation and found to be 72±2 mN/m for normal saline, as expected.

Question: With “albumin: the most abundant plasma protein, 66 kD; negatively charged facilitating solute” as the substance, how does the “albumin concentrations that facilitate the surface activity of 1 vol % SURVANTA” value [1] read?
Answer: 3-11 w/v %

Question: And the “optimal albumin concentration for the facilitation of 1% SURVANTA” value ([2]; 3 μl normal saline drops, FIG. 4 bars 3, 4, 5)?
Answer: ~5%

Question: And the “extent of the albumin concentration range that facilitates 1 vol % SURVANTA in vitro” value ([2]; in vitro)?
Answer: does not extend to 10 vol % SURVANTA®

Question: What about the “facilitation of the surface activity of SURVANTA in vitro” value ([2]; in vitro) of the same substance?
Answer: likewise facilitates the surface activity of SURVANTA®
